# Molecular target: Recombinant heterodimeric HCV NS3/NS4A protease (strain 1a) (Hepatitis C virus genotype 1a, UniProt P27958)
# Protein sequences, listed by entry. Tags and fused reporters are not part of them. Residues count along the entry.
# UniProt P27958, 1027-1657: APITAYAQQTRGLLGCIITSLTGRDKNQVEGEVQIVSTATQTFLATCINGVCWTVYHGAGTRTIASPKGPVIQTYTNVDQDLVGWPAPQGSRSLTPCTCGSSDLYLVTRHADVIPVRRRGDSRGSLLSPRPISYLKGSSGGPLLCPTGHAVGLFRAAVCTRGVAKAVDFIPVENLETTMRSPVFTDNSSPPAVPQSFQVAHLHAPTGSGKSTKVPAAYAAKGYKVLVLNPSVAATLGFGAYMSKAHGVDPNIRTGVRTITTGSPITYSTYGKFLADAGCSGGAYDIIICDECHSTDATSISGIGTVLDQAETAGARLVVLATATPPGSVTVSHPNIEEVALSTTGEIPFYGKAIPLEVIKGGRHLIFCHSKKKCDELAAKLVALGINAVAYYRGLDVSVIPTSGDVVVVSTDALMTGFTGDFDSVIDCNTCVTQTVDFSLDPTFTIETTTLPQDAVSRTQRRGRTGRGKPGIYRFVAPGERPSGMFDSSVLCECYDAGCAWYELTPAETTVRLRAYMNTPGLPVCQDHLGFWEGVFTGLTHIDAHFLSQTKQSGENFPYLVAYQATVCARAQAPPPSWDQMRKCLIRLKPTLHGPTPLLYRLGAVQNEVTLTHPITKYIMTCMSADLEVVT
# UniProt P27958, 1658-1711: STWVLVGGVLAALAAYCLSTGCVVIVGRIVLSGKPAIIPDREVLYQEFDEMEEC
# Test: Spectrophotometric assay for HCV protease inhibitory activity (chromogenic ester substrates)
# Format: biochemical
# Conditions: 30° C., pH 6.5 assay buffer; read-out: Ki* (NS3 Serine Protease Inhibition)
row,SMILES,Ki [nM]
1,"CC(C)(C)NC(=O)N[C@H](C(=O)N1C[C@H]2[C@@H]([C@H]1C(=O)N[C@@H](CC1CCC1)C(=O)C(N)=O)C2(C)C)C(C)(C)C [Formula 3, (1R,2S,5S)-N-[(1S)-3-amino-1-(cyclobutylmethyl)-2,3-dioxopropyl]-3-[(2S)-2-[[[(1,1-dimethylethyl)amino]carbonyl]amino]-3,3-dimethyl-1-oxobutyl]-6,6-dimethyl-3-azabicyclo[3.1.0]hexane-2-carboxamide]",23 ± 5
2,CC(C)(C)NC(=O)N[C@H](C(=O)N1C[C@H]2[C@@H]([C@H]1C(=O)N[C@H](CC1CCC1)C(=O)C(N)=O)C2(C)C)C(C)(C)C [Formula 2],3000
